Results on 29 molecules are retold here after PubChem BioAssay AID873 (PCMD, 2007).

The chains behind the UniProt entries cited, without tags or fusion partners. Residues count along the entry.
UniProt Q9Y337, 67-293 limits assumed: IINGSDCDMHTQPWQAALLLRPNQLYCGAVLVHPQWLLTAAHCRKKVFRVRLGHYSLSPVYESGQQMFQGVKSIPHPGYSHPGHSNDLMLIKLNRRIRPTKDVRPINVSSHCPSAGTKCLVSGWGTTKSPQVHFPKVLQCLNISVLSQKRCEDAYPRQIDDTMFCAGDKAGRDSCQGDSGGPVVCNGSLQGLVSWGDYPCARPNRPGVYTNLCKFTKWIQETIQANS

Only a part is listed here, and it is no random draw. The source made the active and inactive calls.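 The calls were made as follows: active = inhibition of 40% or more; inactive = the rest.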

For the assay, the target named is Kallikrein-5 (Homo sapiens) (UniProt Q9Y337). The experiment in a line: human KLK5 protease inhibitors, primary screen, biochemical, 1536-well (AID 873).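 Also: 0% = enzyme controls without compound and 100% = no-enzyme blanks.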 The settings on record: recombinant hK5, fluorogenic AMC substrate cleavage; at 5 µM; stronger effect = higher value.
On to `COc1ccc(C(=O)NCC2(N3CCOCC3)CCCCC2)cc1OC`, for which the inhibition is inactive: 7.29%. To `O=C(OC1CN2CCC1CC2)C1c2ccccc2C=Cc2ccccc21` (centres undefined) belongs inactive: -15%; to `N/C(=N\O)c1c(N)no[n+]1[O-]`, inactive: -6.73%; to `N#Cc1ccc(C(=O)NCC2(N3CCCCC3)CCCCC2)cc1`, inactive: 4.35%. Turning to `c1ccc(CN2CCC(Nc3ccccc3)CC2)cc1`, the inhibition is inactive: -20.1%.

`Fc1ccccc1NC1CCN(Cc2ccccc2)CC1`: the inhibition is inactive: -13.7%. As for `CN(C)c1ccc(C(=O)NCC2(N3CCCCC3)CCCCC2)cc1`, the inhibition was inactive: 4.71%. To `CCN1CCC(Nc2cccc(F)c2)CC1` belongs inactive: -8.59%. Regarding `CC(C)(C)OC(=O)N1CCC(Nc2ccccc2)CC1`, the inhibition is inactive: 5.92%.

On to `CCOc1ncccc1C(=O)NCC1(N2CCOCC2)CCCCC1`, for which the inhibition is inactive: -4.63%.

As to `CCCOc1ccc(C)cc1CN(CCCl)CCCl`, the inhibition is inactive: -3.22%. For the molecule `CCC(CO)(C(=O)OC1CN2CCC1CC2)c1ccccc1` (centres undefined), the inhibition is inactive: -2.89%. As to `COc1cc(OC)cc(C(=O)NCC2(N3CCOCC3)CCCCC2)c1`, the inhibition was inactive: -4.8%. `COc1ccc(C(=O)NCC2(N3CCCCC3)CCCCC2)c(OC)c1OC`: the inhibition is inactive: -10.9%.

For the molecule `CCOC(=O)N1CCC(Nc2ccc(OC)cc2)CC1`, the inhibition is inactive: -0.28%. As to `O=C(OC1CN2CCC1CC2)C1c2ccccc2Oc2ccccc21` (centres undefined), the inhibition is inactive: -4.72%. For `N#CC1(Nc2ccccc2)CCN(Cc2ccccc2)CC1`, the inhibition is inactive: -7.82%. To `O=C(NCC1(N2CCOCC2)CCCCC1)c1cc2ccccc2o1` belongs inactive: -1.44%; to `COc1ccc(NC2CCN(CCc3ccccc3)CC2)c(OC)c1`, inactive: 10%. The result for `CCOc1ccc(C)cc1CN(CCCl)CCCl` reads inactive: -9.37%; that for `Cc1ccc(OCC(C)C)c(CN(CCCl)CCCl)c1`, inactive: -4.82%. With `O=C(NCC1(N2CCCCC2)CCCCC1)c1cccc([N+](=O)[O-])c1`, the inhibition is inactive: -15.2%.

For the molecule `N#CC1(Nc2ccccc2)CCN(CCc2ccccc2)CC1`, the inhibition is inactive: -2.29%. Regarding `CN1CCN(CCOC(=O)C(O)(c2ccccc2)c2ccccc2)CC1`, the inhibition is inactive: -20.3%.

Turning to `COc1ccc(NC2CCN(C(=O)OC(C)(C)C)CC2)cc1`, the inhibition is inactive: -7.78%. As for `O=C(NCC1(N2CCOCC2)CCCCC1)c1cc(=O)[nH]c2ccccc12`, the inhibition is inactive: -4.59%. As for `COc1ccc(CN(CCCl)CCCl)cc1Cl`, the inhibition was inactive: -2.47%. For `CN(C)c1cccc(C(=O)NCC2(N3CCCCC3)CCCCC2)c1`, the inhibition is inactive: -9.51%. For `CC(C)c1ccc(NC2CCN(C(=O)OC(C)(C)C)CC2)cc1`, the inhibition was inactive: -5.25%.
